Laboratory results published in patent US4146720A, “N-Aminoethyl-substituted-3-nitronaphthalimides” (priority 1977, dated 1979).

Experiment: Comparative toxicity study (LD0, LD50) and therapeutic index
Details: mouse, in vivo
Excerpt: In the study of the cytostatic action, 6-mercaptopurine was taken as the comparative anti-neoplastic drug.

SMILES	selectivity ratio
CCN(CC)CCN1C(=O)c2cccc3cc([N+](=O)[O-])cc(c23)C1=O [Compound 2, N-(2-diethylaminoethyl)-3-nitronaphthalimide]	0.66
O=C1c2cccc3cc([N+](=O)[O-])cc(c23)C(=O)N1CCN1CCCCC1 [Compound 1, N-[2-(N-piperidino)ethyl]-3-nitronaphthalimide]	1
